Test: Pharmacokinetics and bioavailability in guinea pigs, oral
Type: in vivo, guinea pig

Cc1c(Br)cc(NC(=O)CS(=O)(=O)O)cc1Br
AUCALL (Co-admin of L335M34 (50 mg/kg) and L01Z08 (20 mg/kg)): 52752.61 ng·h/mL
time plasma concentration is 10-fold in excess of biochemical IC50 (L335-M34 50 mg/kg, L01-Z08 20 mg/kg): 12-14 hours

Reference: patent publication US10532977B2, “Small molecule inhibitors of protein tyrosine phosphatases and uses thereof” (Indiana University Research and Technology Corporation, priority 2015, dated 2020)
